Measurements as given in PMC4110911 (Bioorganic & medicinal chemistry letters, 2014).

Sequences of proteins named here, by UniProt entry; tags and fusion partners are left off. A change or cut given only in a name is not applied to a line headed by its entry.
UniProt P49841: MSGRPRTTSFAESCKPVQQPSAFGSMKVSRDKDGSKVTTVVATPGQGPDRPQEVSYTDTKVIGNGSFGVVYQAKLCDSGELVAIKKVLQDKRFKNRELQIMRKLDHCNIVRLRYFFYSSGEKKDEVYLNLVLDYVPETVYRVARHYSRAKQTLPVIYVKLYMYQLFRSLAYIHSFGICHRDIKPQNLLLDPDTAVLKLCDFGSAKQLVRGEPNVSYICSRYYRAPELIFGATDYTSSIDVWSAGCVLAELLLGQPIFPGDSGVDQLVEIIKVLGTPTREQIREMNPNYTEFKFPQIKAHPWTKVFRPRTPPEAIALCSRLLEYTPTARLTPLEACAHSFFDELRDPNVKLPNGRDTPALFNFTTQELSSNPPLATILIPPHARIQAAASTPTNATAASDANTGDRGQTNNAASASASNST

What was measured:
GSK-3β = GSK-3β (Homo sapiens, UniProt P49841); experiment: GSK-3β kinase assay; type: biochemical; details: read-out: IC50 value, GSK-3β; mean ± standard deviation, triplicate
PKC = experiment: PepTag non-radioactive PKC assay; type: biochemical; details: read-out: IC50 value, PKC; mean ± standard deviation, triplicate

SMILES: Cc1ccnc2c(NCc3ccc(O)cc3)cc(O)c(Oc3cccc(C(F)(F)F)c3)c12 [Compound 10]
- IC50 (GSK-3β): 0.158 ± 0.0191 µM
- IC50 (PKC): 750 ± 9.3 µM
